Data set [1] has as its system Candida albicans CAN14. Nature of the data set: Survival of C. albicans-infected G. mellonella. The format is in vivo, Galleria mellonella. The settings on record: for survival of infected larvae: 7th day; for survival of infected larvae compared to untreated controls: all tested concentrations (5, 10 and 15 mg/kg).
The test system of data set [2] is G. mellonella larvae. Nature of the data set: Compound toxicity in G. mellonella. It is filed as in vivo. The settings on record: uninfected larvae, 10 mg/kg, till 144 h post-treatment.

For the substance “2-((2-cyclohexylidene)hydrazino)-4-(4-methoxyphenyl)-thiazole [Compound 3]”, the “survival of infected larvae” value in data set [1] (5 mg/kg) and in data set [1] (10 mg/kg) was 37% in each case. Also, the “survival of infected larvae compared to untreated controls” value in data set [1] was “significantly prolonged survival”. Moreover, the “larvae survival, toxicity test” value in data set [2] amounted to 95%.
For the substance “2-((2-cyclopentylidene)hydrazino)-4-(4-methoxyphenyl)-thiazole [Compound 4]”, the “survival of infected larvae” value in data set [1] (10 mg/kg) and in data set [1] (15 mg/kg) was 25% in each case. The “survival of infected larvae compared to untreated controls” value in data set [1] is listed as “significantly prolonged survival”. The “larvae survival, toxicity test” value in data set [2] is recorded as 95%.
